Source: paper PMC11399425, “Tricyclic and tetracyclic antidepressants upregulate VMAT2 activity and rescue disease-causing VMAT2 variants” (Neuropsychopharmacology, 2024)

System: monoamine transporter mRNA (VMAT2, VMAT1, DAT, NET, SERT)
Assay: RT-qPCR of endogenous monoamine transporters mRNA in BE(2)-M17 cells
Type: cell-based, human
Conditions: 10 μM, 18 h

## CN1CCN2c3ccccc3Cc3ccccc3C2C1 (stereo not shown) [MIA, Mianserin]
  Monoamine transporter mRNA (including VMAT2): no upregulation in any monoamine transporter mRNA
